Data as given in US4277479A, “Tetrazolylalkoxycarbostyril derivatives and pharmaceutical compositions containing them” (Otsuka Pharmaceutical Co., Ltd., priority 1978, dated 1981).

Molecular target: T1, cyclic AMP phosphodiesterase (Oryctolagus cuniculus, UniProt G1ST54)
T1 construct: the supernatant was collected to use it as a crude enzyme solution; from tissue; host or cells: rabbit platelets (from platelet-rich plasma)
T1 sequence (G1ST54 1-1128): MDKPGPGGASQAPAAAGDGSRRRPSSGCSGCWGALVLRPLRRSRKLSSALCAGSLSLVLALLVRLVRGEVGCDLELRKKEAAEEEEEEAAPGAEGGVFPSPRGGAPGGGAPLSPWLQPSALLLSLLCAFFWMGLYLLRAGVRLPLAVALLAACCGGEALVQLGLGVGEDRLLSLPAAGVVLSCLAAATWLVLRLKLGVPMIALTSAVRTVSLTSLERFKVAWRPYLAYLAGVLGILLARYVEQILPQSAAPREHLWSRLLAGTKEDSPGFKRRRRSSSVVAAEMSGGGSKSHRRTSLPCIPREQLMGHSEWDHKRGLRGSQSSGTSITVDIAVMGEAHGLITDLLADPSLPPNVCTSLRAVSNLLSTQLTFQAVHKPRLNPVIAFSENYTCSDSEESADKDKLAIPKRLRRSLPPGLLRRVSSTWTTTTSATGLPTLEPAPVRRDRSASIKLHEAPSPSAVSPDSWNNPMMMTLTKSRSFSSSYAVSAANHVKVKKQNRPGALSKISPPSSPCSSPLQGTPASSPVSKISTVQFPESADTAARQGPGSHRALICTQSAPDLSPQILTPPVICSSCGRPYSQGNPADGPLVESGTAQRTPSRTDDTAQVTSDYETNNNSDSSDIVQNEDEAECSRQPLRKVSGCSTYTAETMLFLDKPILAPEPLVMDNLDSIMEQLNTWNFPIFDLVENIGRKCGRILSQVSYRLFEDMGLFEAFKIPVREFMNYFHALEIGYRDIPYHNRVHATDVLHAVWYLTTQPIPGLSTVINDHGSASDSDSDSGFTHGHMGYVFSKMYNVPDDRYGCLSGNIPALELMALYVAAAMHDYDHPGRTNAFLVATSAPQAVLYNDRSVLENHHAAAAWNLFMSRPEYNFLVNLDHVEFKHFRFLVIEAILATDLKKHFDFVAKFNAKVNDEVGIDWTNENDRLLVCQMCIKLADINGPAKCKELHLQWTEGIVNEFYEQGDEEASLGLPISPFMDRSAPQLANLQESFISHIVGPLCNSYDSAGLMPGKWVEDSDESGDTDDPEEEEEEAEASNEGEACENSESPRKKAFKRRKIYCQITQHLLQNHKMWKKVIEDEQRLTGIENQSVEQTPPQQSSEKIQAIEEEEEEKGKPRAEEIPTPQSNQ
Test: Obstructive action against cyclic AMP phosphodiesterase
Assay type: biochemical, rabbit
Parameters: inhibition: dose or concentration left out as unconfirmed
Settings: read-out: Phosphodiesterase obstruction rate
Description: (Test of obstructive action against cyclic AMP phosphodiesterase)
The obstructive action against cyclic AMP phosphodiesterase was measured according to the activity measuring method described in "Biochimica et Biophysica Acta", Vol. 429, pp. 485-497 (1976) and "Biochemical Medicine", Vol. 10, pp. 301-311 (1974).
That is, for determining the obstructive activity against cyclic AMP phosphodiesterase, 10 ml of a solution obtained by adding 1 mmol of MgCl2 into 50 mmol of tris-hydrochloric acid buffer with pH 7.4 was added to the platelets obtained by further centrifuging the above-said rabbit PRP at 3,000 r.p.m. for 10 minutes, and the suspended platelets were ground by a Teflon potter type homogenizer. This was followed by two times of freezing and thawing treatment and 300-second fracturing with 200 watt supersonic waves. After additional 60-minute centrifugation with 100,000 g, the supernatant was collected to use it as a crude enzyme solution. […]
The reaction system was then immersed in boiling water for 2 minutes to stop the reaction, and then this reaction solution was cooled in ice water and, for converting the produced tritium 5'-AMP into tritium adenosine, the solution was added with 0.05 ml (1 mg/ml) of snake poison as 5'-nucleotidase and reacted at 30° C. for 10 minutes. […] The whole quantity of the elutant was added with 10 ml of a triton-toluene type scintillator and the produced tritium adenosine was measured by a liquid scintillation counter to determine the phosphodiesterase activity.
In this way, the phosphodiesterase activation value (Vs) of the test compounds of the respective concentrations was determined, and the phosphodiesterase obstruction rate (%) was determined from said activation value (Vs) and control value (Vc) (obtained from water not containing any test compound) from the following formula: [formula]

Structure (SMILES): COc1ccc(Cc2nccc3cc(OC)c(OC)cc23)cc1OC [Papaverine, papaverine, reference compound]
- inhibition: 54.6%
- inhibition at 0.01 µM: 7.2%
- inhibition at 1 µM: 82.4%
